Earlier results on one compound are cited in patent US20040072205A1, “Methods for treating neuronal disorders” (priority 2002, published 2004).

The test system of this data set is human patients with ALS. The settings on record: cited from earlier work.

Turning to `Nc1nc2ccc(OC(F)(F)F)cc2s1` [riluzole], the extension of survival result was “approximately three”.
